The results in this text go back to patent US20100151459A1 (published 2010).

For this test, the system named is patients with schizophrenia, schizophreniform disorder or schizoaffective disorder.

For `O=C1CCc2ccc(OCCCCN3CCN(c4cccc(Cl)c4Cl)CC3)cc2N1` [aripiprazole], the “difference in PANSS score between the two genotype groups” value (end of duration period after lapse of 26 weeks) was “difference between two groups was observed”. Moreover, the “improvement of PANSS score (0 week vs 8, 12, 16 and 26 weeks)” value (minor alleles of Taq IA polymorphism (A1A1) compared to major alleles (A1A2 and A2A2), at 8 weeks or later) is reported as “significant improvement”. In addition, the “symptoms by PANSS total score” value (patients having A1A1 alleles compared to A1A2 and A2A2, 8, 12 and 16 weeks) was “dramatically improved”.
